Several values for one entry are separate records, joined by “and”; a condition that tells them apart may be missing. Equal values may be shown once.
Test system: tumor endothelial cells in GBM explants
Assay: Active caspase-3 in CD105+ve cells of explants
Details: 1 µM, explants #30; listed as PU-H71

CC(C)NCCCn1c(Sc2cc3c(cc2I)OCO3)nc2c(N)ncnc21 [Compound 1, reference compound]
%Increase Active Caspase-3 (CD105+ve cells): 143% and 152% and 196%

Source: article PMC8333062, “Chemical tools for epichaperome-mediated interactome dysfunctions of the central nervous system” (Nature Communications, 2021)
